# scFv variants of Ab-95 (light chain) against a SARS-CoV-2 spike peptide

Reference: Engelhart et al. 2022, doi:10.1038/s41597-022-01779-4. File: FLAb, binding data.

The target is the same throughout: PDVDLGDISGINAS, from the HR2 region of SARS-CoV-2 spike.

Parent: Ab-95, a human scFv built as VH, a (GGGGS)3 linker, VL. Only the CDRs of the light chain vary.
VH: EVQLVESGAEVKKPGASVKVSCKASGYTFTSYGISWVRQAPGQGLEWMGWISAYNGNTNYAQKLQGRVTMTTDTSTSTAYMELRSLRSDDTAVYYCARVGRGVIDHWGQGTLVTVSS
VL: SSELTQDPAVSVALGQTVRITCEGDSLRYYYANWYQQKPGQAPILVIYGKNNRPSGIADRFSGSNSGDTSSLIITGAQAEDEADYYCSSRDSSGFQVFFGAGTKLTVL

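The library (AAYL52) carries one to three amino acid substitutions per variant, with no insertions or deletions. The scFvs were displayed on barcoded MATa yeast, the peptide on MATalpha yeast. The frequency of each diploid, read from paired DNA barcodes, reflects how well the two displayed proteins bind. Read counts were normalised to the haploid input and turned into Kd by a linear fit to BCL2-family pairs of known affinity, for each replicate. Each pool was mated in three replicate cultures.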

Positions count from residue 1 of the parent VL; A32G puts G in place of A.
The read-out is the apparent dissociation constant on a log10 scale (nM): the lower, the stronger.
Replicates are averaged; those with no signal do not enter the mean.
A pair that was not seen in any replicate is written "no signal"; this usually means weak binding, but a binder can also be missed.
Background: pairings of library AAYL52 with three empty control strains gave a value in 28% of cases (median 3.91, 5th percentile 2.90). Values in that range, when seen in few replicates, are hard to tell from nonspecific mating. For each scFv, signals with the empty controls are counted beside the result.

{"changes": "A32G Q96F F98T", "mean, log10 nM": "4.76", "detected": "1/3", "control signals": "4/9"}
{"changes": "L27R N51P S55E", "mean, log10 nM": "4.03", "detected": "2/3", "control signals": "3/9"}
{"changes": "G24H D25S P54K", "mean, log10 nM": "3.29", "detected": "2/3", "control signals": "3/9"}
{"changes": "A32Q N33F R90Y", "mean, log10 nM": "no signal", "detected": "0/3", "control signals": "1/9"}
{"changes": "N51R R90K S93A", "mean, log10 nM": "5.49", "detected": "1/3", "control signals": "1/9"}
{"changes": "E23S S89P R90P", "mean, log10 nM": "4.64", "detected": "2/3", "control signals": "5/9"}
{"changes": "G24I V97P", "mean, log10 nM": "2.71", "detected": "3/3", "control signals": "1/9"}
{"changes": "S93E G94Q V97K", "mean, log10 nM": "3.46", "detected": "1/3", "control signals": "1/9"}
{"changes": "A32H D91H S93F", "mean, log10 nM": "4.21", "detected": "1/3", "control signals": "1/9"}
{"changes": "R53E R90K S93A", "mean, log10 nM": "4.72", "detected": "1/3", "control signals": "1/9"}
{"changes": "L27T N33G F95A", "mean, log10 nM": "4.62", "detected": "2/3", "control signals": "2/9"}
{"changes": "A32W S92R F98N", "mean, log10 nM": "3.42", "detected": "3/3", "control signals": "2/9"}
{"changes": "D25V S55M S89F", "mean, log10 nM": "4.21", "detected": "3/3", "control signals": "4/9"}
{"changes": "G24P P54Q V97P", "mean, log10 nM": "5.26", "detected": "1/3", "control signals": "2/9"}
{"changes": "K50Q S88K S93E", "mean, log10 nM": "no signal", "detected": "0/3", "control signals": "2/9"}
{"changes": "R28E G49W V97M", "mean, log10 nM": "4.65", "detected": "1/3", "control signals": "1/9"}
{"changes": "P54L R90C F95T", "mean, log10 nM": "no signal", "detected": "0/3", "control signals": "2/9"}
{"changes": "A32G F95A", "mean, log10 nM": "2.65", "detected": "3/3", "control signals": "3/9"}
{"changes": "D25F L27M R53V", "mean, log10 nM": "3.25", "detected": "2/3", "control signals": "3/9"}
{"changes": "Y30N S92L S93C", "mean, log10 nM": "1.07", "detected": "3/3", "control signals": "4/9"}
{"changes": "N51F D91K F98P", "mean, log10 nM": "no signal", "detected": "0/3", "control signals": "2/9"}
{"changes": "A32E R53I S93P", "mean, log10 nM": "3.16", "detected": "1/3", "control signals": "5/9"}